Reference: paper PMC12678819, “Targeting bacterial kinases as a strategy to counteract antibiotic resistance” (2025)

Sequences of proteins named here, by UniProt entry; tags and fusion partners are left off. A change or cut given only in a name is not applied to a line headed by its entry. Residues count along the entry.
UniProt Q13153, 249-545 limits assumed: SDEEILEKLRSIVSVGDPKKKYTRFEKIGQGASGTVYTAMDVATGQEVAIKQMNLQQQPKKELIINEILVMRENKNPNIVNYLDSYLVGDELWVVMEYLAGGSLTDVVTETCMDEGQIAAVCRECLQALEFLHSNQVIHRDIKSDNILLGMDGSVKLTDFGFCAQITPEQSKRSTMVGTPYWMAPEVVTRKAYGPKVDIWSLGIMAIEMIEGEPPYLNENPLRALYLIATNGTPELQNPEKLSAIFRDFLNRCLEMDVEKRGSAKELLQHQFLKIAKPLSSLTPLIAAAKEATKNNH
UniProt O95747, 17-291 limits assumed: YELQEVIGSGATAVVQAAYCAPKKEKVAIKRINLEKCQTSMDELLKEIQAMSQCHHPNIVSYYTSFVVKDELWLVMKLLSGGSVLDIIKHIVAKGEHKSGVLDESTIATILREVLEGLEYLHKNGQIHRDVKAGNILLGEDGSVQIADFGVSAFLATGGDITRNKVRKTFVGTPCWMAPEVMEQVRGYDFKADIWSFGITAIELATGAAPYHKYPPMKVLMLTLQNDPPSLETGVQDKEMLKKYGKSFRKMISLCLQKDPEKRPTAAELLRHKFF
UniProt Q99640, 75-362 limits assumed: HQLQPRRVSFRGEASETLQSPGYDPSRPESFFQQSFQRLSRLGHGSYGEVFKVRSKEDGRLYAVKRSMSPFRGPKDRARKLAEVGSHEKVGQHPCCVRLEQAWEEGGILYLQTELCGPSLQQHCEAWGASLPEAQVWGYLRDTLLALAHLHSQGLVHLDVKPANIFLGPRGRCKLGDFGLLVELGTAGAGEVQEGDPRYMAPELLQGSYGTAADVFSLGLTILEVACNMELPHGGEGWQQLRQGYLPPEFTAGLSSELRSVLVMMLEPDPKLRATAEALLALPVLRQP
UniProt P49761, 156-472 limits assumed: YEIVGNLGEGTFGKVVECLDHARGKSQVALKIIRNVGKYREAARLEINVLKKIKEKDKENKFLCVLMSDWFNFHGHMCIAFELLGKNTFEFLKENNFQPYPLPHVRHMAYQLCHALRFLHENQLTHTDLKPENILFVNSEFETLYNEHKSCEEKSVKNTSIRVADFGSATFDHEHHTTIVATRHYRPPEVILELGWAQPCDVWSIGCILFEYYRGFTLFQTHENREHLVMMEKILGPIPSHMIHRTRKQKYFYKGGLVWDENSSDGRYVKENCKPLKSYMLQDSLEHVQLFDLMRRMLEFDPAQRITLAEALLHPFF
UniProt P55201: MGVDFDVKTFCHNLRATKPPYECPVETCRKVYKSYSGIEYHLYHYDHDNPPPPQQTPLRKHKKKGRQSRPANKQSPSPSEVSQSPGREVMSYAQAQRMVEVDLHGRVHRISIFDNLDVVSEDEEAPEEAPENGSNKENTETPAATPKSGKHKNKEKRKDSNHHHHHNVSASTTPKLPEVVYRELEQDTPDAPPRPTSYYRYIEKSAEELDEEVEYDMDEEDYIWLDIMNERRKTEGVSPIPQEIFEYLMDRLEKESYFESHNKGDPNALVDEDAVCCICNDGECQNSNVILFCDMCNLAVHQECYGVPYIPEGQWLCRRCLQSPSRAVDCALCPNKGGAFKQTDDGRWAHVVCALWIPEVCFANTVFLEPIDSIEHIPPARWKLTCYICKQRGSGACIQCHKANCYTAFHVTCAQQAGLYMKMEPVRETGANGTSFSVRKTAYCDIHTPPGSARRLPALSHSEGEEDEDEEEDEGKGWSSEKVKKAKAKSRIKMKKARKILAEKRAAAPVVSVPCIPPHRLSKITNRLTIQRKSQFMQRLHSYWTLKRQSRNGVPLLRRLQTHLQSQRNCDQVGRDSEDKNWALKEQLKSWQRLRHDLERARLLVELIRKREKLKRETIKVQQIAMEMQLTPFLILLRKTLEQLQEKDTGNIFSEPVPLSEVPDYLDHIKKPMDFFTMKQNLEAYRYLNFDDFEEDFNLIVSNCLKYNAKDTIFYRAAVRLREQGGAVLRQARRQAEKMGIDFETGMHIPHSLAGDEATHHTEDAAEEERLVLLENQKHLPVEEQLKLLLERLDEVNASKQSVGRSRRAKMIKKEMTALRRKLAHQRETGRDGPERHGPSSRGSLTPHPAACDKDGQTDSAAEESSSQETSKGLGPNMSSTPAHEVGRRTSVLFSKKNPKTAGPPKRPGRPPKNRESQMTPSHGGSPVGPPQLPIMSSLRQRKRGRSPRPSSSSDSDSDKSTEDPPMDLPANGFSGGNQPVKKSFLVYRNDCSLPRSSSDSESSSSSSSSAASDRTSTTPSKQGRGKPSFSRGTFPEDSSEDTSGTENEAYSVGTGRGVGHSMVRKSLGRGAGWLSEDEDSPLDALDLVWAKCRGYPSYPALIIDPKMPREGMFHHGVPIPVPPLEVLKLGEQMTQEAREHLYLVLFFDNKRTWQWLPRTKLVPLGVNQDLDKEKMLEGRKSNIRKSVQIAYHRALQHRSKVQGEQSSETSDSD
UniProt P54764, 621-882 limits assumed: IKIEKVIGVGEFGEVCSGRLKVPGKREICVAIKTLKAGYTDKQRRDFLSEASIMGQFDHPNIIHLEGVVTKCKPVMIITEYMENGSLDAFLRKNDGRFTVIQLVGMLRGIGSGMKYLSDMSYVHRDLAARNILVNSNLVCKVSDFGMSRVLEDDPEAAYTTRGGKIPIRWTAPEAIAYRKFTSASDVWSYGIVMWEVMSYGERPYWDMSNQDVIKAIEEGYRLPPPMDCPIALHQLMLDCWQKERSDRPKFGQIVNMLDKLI
UniProt Q09013: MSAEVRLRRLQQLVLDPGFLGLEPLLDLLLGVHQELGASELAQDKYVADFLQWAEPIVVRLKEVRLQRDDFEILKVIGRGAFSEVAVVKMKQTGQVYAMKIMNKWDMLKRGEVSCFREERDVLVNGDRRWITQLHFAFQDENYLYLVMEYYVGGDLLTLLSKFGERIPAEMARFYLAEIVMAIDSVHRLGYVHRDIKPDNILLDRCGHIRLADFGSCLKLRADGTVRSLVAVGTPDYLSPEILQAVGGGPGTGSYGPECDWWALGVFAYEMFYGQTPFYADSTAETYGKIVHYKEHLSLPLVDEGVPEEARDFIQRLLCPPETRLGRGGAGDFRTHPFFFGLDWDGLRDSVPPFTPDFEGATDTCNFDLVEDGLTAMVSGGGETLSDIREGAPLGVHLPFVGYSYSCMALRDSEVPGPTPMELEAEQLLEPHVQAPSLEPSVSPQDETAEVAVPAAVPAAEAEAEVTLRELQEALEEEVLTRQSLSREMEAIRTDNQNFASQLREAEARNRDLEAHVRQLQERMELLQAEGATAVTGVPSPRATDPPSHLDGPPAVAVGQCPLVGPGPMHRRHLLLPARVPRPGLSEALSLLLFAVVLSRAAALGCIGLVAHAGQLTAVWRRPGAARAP
UniProt P16083: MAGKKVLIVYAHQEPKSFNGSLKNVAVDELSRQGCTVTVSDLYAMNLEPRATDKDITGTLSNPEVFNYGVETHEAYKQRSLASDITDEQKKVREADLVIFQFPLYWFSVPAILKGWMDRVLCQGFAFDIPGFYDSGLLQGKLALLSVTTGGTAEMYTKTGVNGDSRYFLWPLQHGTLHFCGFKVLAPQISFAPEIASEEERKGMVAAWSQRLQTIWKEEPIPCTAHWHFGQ
UniProt Q13557, 14-272 limits assumed: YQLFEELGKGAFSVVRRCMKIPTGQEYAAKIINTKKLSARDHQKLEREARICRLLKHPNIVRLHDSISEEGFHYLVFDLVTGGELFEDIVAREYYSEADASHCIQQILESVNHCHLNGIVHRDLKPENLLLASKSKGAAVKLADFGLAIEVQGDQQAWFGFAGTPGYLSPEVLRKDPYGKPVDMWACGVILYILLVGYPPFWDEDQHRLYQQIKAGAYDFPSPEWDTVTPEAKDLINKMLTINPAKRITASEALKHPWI
UniProt O75385, 1-283 limits assumed: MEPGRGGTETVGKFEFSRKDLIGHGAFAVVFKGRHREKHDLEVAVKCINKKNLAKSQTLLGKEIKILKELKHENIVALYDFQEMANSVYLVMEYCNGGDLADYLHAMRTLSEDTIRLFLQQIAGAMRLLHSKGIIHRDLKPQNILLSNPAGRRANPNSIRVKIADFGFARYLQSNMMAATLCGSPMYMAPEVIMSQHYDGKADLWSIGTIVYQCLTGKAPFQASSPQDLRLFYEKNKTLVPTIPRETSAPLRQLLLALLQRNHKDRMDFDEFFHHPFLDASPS
UniProt O15164: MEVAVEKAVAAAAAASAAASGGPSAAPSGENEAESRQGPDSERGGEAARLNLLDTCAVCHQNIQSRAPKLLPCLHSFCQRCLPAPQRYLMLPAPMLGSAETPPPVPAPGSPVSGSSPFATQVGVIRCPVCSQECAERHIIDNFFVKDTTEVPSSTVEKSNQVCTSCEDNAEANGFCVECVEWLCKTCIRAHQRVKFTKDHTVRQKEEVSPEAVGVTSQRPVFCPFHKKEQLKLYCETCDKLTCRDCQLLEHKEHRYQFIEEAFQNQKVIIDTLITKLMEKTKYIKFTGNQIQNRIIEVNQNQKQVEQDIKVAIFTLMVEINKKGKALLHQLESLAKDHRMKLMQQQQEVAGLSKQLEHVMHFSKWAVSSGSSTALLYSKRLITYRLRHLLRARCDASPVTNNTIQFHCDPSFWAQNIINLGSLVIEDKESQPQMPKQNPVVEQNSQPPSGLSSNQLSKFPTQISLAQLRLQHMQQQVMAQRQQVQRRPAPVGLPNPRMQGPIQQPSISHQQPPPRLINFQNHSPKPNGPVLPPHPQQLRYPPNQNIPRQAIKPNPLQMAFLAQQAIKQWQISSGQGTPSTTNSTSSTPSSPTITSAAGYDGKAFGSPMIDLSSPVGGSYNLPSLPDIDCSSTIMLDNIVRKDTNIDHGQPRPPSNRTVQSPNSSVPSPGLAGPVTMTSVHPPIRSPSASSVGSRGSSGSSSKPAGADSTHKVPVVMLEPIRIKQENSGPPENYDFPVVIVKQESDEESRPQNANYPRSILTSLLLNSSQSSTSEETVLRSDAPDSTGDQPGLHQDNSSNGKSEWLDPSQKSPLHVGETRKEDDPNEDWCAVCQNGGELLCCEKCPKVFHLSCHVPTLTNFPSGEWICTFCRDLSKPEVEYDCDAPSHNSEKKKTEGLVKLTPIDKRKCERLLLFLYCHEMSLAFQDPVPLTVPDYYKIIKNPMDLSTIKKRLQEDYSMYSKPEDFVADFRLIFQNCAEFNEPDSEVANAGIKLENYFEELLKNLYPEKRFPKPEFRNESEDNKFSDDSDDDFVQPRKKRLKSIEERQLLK
UniProt O75582, 426-687 limits assumed: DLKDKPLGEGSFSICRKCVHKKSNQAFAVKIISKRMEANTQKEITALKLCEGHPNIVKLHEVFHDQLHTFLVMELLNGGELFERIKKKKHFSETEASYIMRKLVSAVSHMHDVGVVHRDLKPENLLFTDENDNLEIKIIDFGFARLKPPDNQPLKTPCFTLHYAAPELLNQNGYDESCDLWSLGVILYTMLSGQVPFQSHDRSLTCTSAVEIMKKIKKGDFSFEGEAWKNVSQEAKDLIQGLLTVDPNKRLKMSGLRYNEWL
UniProt Q9Y243, 148-479 limits assumed: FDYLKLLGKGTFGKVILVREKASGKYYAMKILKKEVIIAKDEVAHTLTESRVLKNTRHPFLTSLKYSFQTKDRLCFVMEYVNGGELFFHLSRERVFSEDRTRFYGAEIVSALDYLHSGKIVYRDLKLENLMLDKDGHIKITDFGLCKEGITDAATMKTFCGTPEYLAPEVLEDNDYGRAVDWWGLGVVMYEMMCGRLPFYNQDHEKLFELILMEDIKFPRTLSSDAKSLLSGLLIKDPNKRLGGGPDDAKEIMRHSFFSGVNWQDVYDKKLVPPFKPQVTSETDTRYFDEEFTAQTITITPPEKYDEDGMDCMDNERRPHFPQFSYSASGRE
UniProt O00444, 2-275 limits assumed: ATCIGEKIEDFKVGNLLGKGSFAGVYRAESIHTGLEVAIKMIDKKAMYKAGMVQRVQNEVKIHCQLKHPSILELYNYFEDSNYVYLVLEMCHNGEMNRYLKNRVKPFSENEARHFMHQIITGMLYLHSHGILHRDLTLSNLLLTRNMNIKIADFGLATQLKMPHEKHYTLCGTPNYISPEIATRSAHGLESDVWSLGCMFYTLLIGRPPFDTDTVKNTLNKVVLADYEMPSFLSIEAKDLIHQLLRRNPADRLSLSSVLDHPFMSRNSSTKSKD
UniProt P19784: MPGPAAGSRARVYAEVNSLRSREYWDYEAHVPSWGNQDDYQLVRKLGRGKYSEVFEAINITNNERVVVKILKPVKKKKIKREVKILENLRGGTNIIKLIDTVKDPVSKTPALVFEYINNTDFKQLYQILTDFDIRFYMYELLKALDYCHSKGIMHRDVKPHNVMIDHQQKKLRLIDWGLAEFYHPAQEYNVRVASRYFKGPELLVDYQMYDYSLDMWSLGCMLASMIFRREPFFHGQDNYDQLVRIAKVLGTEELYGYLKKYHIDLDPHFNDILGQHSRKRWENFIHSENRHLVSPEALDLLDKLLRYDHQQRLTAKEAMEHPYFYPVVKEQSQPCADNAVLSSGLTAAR
UniProt P07332, 561-822 limits assumed: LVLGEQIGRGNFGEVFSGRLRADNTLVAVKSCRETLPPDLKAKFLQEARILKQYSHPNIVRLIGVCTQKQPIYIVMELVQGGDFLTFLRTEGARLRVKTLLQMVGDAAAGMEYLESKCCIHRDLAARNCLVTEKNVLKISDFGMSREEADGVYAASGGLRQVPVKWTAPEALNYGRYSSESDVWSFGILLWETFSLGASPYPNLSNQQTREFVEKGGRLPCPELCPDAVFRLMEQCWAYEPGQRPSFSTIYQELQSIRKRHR

Tests used:
[1] = Plasma protein binding, human; conditions: for PPB human (%): mean; for PPB human, single replicate: raw data of Table 3
[2] = Metabolic stability assay, mouse microsomes
PAK1 = PAK1 (Homo sapiens, UniProt Q13153); assay: DSF kinase panel; conditions: 10 μM
OSR1 = OSR1 (Homo sapiens, UniProt O95747); assay: DSF kinase panel; conditions: 10 μM
MYT1 = MYT1 (Homo sapiens, UniProt Q99640); assay: DSF kinase panel; conditions: 10 μM
CLK3 = CLK3 (Homo sapiens, UniProt P49761); assay: DSF kinase panel; conditions: 10 μM
BRPF1 = BRPF1 (Homo sapiens, UniProt P55201); assay: DSF kinase panel; conditions: 10 μM
EPHA4 = EPHA4 (Homo sapiens, UniProt P54764); assay: DSF kinase panel; conditions: 10 μM
DMPK1 = DMPK1 (Homo sapiens, UniProt Q09013); assay: DSF kinase panel; conditions: 10 μM
NQO2 = NQO2 (Homo sapiens, UniProt P16083); assay: DSF kinase panel; conditions: 10 μM
CAMK2D = CAMK2D (Homo sapiens, UniProt Q13557); assay: DSF kinase panel; conditions: 10 μM
ULK1 = ULK1 (Homo sapiens, UniProt O75385); assay: DSF kinase panel; conditions: 10 μM
TIF1 = TIF1 (Homo sapiens, UniProt O15164); assay: DSF kinase panel; conditions: 10 μM
MSK1_b = MSK1_b (Homo sapiens, UniProt O75582); assay: DSF kinase panel; conditions: 10 μM
STLK3 = STLK3 (Homo sapiens, UniProt Q9UEW8); assay: DSF kinase panel; conditions: 10 μM
ATK3 = ATK3 (Homo sapiens, UniProt Q9Y243); assay: DSF kinase panel; conditions: 10 μM
PLK4 = PLK4 (Homo sapiens, UniProt O00444); assay: DSF kinase panel; conditions: 10 μM
CK2a2 = CK2a2 (Homo sapiens, UniProt P19784); assay: DSF kinase panel; conditions: 10 μM
TAF1 = TAF1 (Homo sapiens, UniProt P21675); assay: DSF kinase panel; conditions: 10 μM
BMX = BMX (Homo sapiens, UniProt P51813); assay: DSF kinase panel; conditions: 10 μM
FES = FES (Homo sapiens, UniProt P07332); assay: DSF kinase panel; conditions: 10 μM
[3] = Plasma stability assay, human; conditions: 1 μg∙mL-1

| Compound | PPB human (%) [1] [%] | ΔTm PAK1 (PAK1) [°C] | ΔTm OSR1 (OSR1) [°C] | ΔTm MYT1 (MYT1) [°C] | ΔTm CLK3 (CLK3) [°C] | ΔTm BRPF1 (BRPF1) [°C] | ΔTm EPHA4 (EPHA4) [°C] | ΔTm DMPK1 (DMPK1) [°C] | ΔTm NQO2 (NQO2) [°C] | ΔTm CAMK2D (CAMK2D) [°C] | ΔTm ULK1 (ULK1) [°C] | ΔTm TIF1 (TIF1) [°C] | ΔTm MSK1_b (MSK1_b) [°C] | ΔTm STLK3 (STLK3) [°C] | ΔTm ATK3 (ATK3) [°C] | ΔTm PLK4 (PLK4) [°C] | ΔTm CK2a2 (CK2a2) [°C] | ΔTm TAF1 (TAF1) [°C] | ΔTm BMX (BMX) [°C] | ΔTm FES (FES) [°C] | also measured |
| --- | --- | --- | --- | --- | --- | --- | --- | --- | --- | --- | --- | --- | --- | --- | --- | --- | --- | --- | --- | --- | --- |
| Clc1cnc2[nH]ccc2c1-c1ccn[nH]1 | 74.9 ± 14.2 | -0.7 | -0.7 | -0.7 | 0.9 | -0.8 | 0.3 | 0.9 | -0.9 | -0.6 | 2.2 | -0.4 | 4.1 | 1.5 | 0.1 | 3.6 | 0.8 | 0.7 | 0.3 | 1.5 | PPB human, single replicate [1]: 64.9% and 84.9%; t1/2 mouse microsomes [2]: >1 h; t1/2 human plasma [3]: > 4 h |
| Clc1cnc2[nH]ccc2c1-c1cn(-c2ccccc2)nn1 | 98.8 | -0.4 | 0.3 | -0.5 | 1.0 | -0.9 | 0.2 | 0.9 | -0.8 | -0.4 | 2.9 | -0.3 | 4.7 | 0.6 | 0.2 | 3.7 | 0.7 | 2.1 | -0.3 | -0.7 | PPB human (%) ([1]; listed as 14 f): 98.8 ± 0.3%; PPB human, single replicate [1]: 98.5% and 99.1% and 98.8%; t1/2 mouse microsomes [2]: 0.428 h; t1/2 human plasma [3]: >4 h |
| NC(=O)Cn1cc(-c2c(Cl)cnc3[nH]ccc23)nn1 | 55.3 ± 9.9 | -0.9 | -0.1 | -0.7 | 0.7 | -1.4 | -0.2 | 1.0 | -0.7 | 0.1 | 1.8 | -0.5 | 5.6 | 0.9 | 0.0 | 2.7 | 1.2 | -15.1 | 0.0 | 0.7 | PPB human, single replicate [1]: 55.1% and 65.3% and 45.5%; t1/2 mouse microsomes [2]: >1 h; t1/2 human plasma [3]: 3.357 h |
| C[C@H](CO)Cn1cc(-c2c(Cl)cnc3[nH]ccc23)nn1 | 26.4 ± 11.1 | -0.4 | 1.5 | -0.4 | 1.4 | -1.0 | 0.5 | 2.0 | -0.6 | 0.0 | 3.3 | -0.4 | 6.1 | 1.1 | 0.2 | 4.2 | 2.4 | 2.3 | 0.5 | 1.0 | PPB human, single replicate [1]: 31.7% and 13.6% and 33.9%; t1/2 mouse microsomes [2]: >1 h; t1/2 human plasma [3]: > 4 h |
| C[C@@H](O)CCn1cc(-c2c(Cl)cnc3[nH]ccc23)nn1 | 24.6 ± 6.8 | -0.5 | 2.7 | 0.8 | 0.6 | -1.4 | -0.5 | 1.6 | -0.7 | -0.6 | 2.2 | -0.3 | 6.1 | 1.1 | -0.1 | 4.2 | 2.0 | 0.7 | 0.3 | 0.8 | PPB human, single replicate [1]: 17.5% and 25.4% and 31.0%; t1/2 mouse microsomes [2]: >1 h; t1/2 human plasma [3]: > 4 h |
| C[C@@H](CO)Cn1cc(-c2c(Cl)cnc3[nH]ccc23)nn1 | 22.0 ± 14.6 | -0.6 | 2.8 | -0.4 | 1.7 | -0.1 | 0.4 | 2.0 | -0.5 | -0.9 | 3.8 | -0.5 | 7.5 | 1.4 | 0.2 | 4.5 | 2.5 | 0.7 | 0.5 | 1.0 | t1/2 mouse microsomes [2]: >1 h; t1/2 human plasma [3]: > 4 h |
| OC[C@H](O)Cn1cc(-c2c(Cl)cnc3[nH]ccc23)nn1 |  | -1.0 | 1.0 | -0.6 | 0.8 | -1.2 | 0.0 | 1.4 | -0.7 | -0.9 | 2.6 | -0.3 | 8.0 | 1.2 | -0.2 | 3.1 | 1.6 | 0.0 | 0.2 | 0.5 |  |
| OCCCn1cc(-c2c(Cl)cnc3[nH]ccc23)nn1 | 61.0 ± 10.8 | -0.5 | 0.4 | -0.5 | 1.2 | -0.5 | 0.3 | 1.5 | -0.5 | -0.4 | 2.8 | -0.5 | 8.0 | 1.1 | 0.0 | 3.8 | 1.8 | -0.2 | 0.4 | 0.6 | PPB human, single replicate [1]: 49.0% and 63.7% and 70.2%; t1/2 mouse microsomes [2]: >1 h; t1/2 human plasma [3]: >4 h |
| C[C@H](O)Cn1cc(-c2c(Cl)cnc3[nH]ccc23)nn1 |  | -0.5 | 0.5 | -0.7 | 1.3 | -0.1 | 0.2 | 1.6 | -0.3 | -0.1 | 2.8 | -0.4 | 7.1 | 1.3 | 0.3 | 3.8 | 1.5 | -0.8 | 0.1 | 0.9 |  |
| C[C@@H](O)Cn1cc(-c2c(Cl)cnc3[nH]ccc23)nn1 |  | -0.9 | 0.4 | -0.6 | 0.9 | -1.2 | 0.5 | 1.6 | -0.7 | -0.5 | 2.8 | -0.5 | 7.2 | 0.9 | 0.2 | 3.5 | 1.7 |  | 0.0 | 0.6 |  |

Several values for one entry are separate records, joined by “and”; a condition that tells them apart may be missing. Equal entries are not always repeated.
